In patent US9796753B2, “N-substituted indenoisoquinolines and syntheses thereof” (Purdue Research Foundation, priority 2005, dated 2017):

target: T1, topoisomerase I (Homo sapiens, UniProt P11387); assay: Topoisomerase I-mediated DNA cleavage reactions (A), 3'-end-labeled 161 bp plasmid DNA, semiquantitative; conditions: tested at concentrations ranging up to 10 μM; semi-quantitative
T1 sequence (P11387 1-765): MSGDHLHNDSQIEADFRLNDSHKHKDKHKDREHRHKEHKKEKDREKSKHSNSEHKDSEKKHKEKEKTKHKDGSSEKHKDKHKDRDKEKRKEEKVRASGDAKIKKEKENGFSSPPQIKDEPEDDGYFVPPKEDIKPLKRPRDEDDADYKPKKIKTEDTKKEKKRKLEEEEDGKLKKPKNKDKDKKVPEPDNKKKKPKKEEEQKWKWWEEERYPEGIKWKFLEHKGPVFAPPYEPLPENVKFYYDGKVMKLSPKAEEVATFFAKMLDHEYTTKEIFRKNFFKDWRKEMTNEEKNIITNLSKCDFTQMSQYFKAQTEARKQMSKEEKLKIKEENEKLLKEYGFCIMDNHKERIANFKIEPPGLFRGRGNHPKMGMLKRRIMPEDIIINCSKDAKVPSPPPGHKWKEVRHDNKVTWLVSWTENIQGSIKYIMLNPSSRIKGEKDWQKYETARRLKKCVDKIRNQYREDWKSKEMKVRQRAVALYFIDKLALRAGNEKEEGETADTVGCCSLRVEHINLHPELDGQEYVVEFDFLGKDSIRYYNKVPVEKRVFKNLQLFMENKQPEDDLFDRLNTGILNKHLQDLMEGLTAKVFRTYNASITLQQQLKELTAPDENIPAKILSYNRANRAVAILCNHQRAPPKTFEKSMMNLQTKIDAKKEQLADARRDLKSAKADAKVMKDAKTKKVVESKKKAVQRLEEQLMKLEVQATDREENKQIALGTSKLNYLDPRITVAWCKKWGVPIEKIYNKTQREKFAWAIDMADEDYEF

Compound	Top 1 Cleavage
CC(C)(C)OC(=O)N(CCCCN(CCCn1c2c(c3ccccc3c1=O)C(=O)c1ccccc1-2)C(=O)OC(C)(C)C)CCCn1c2c(c3ccccc3c1=O)C(=O)c1ccccc1-2 [Compound 13d, Bis-1,4-{(5,6-dihydro-5,11-diketo-11H-indeno[1,2-c]isoquinoline)-(6-propyl-tert-BOCamino)}butane]	++
O=C(O)C(F)(F)F.O=C(O)C(F)(F)F.O=C1c2ccccc2-c2c1c1ccccc1c(=O)n2CCNCCNCCn1c2c(c3ccccc3c1=O)C(=O)c1ccccc1-2 [Compound 14c, Bis-1,2-{(5,6-dihydro-5,11-diketo-11H-indeno[1,2-c]isoquinoline)-6-ethylamino}ethane Bis(trifluoroacetate)]	+
CC(C)(C)OC(=O)N(CCCN(CCn1c2c(c3ccccc3c1=O)C(=O)c1ccccc1-2)C(=O)OC(C)(C)C)CCn1c2c(c3ccccc3c1=O)C(=O)c1ccccc1-2 [Compound 13a, Bis-1,3-{(5,6-dihydro-5,11-diketo-11H-indeno[1,2-c]isoquinoline)-(6-ethyl-tert-BOCamino)}propane]	0
CN(CCCn1c2c(c3ccccc3c1=O)C(=O)c1ccccc1-2)CCCn1c2c(c3ccccc3c1=O)C(=O)c1ccccc1-2 [Compound 12d, Bis{(5,6-dihydro-5,11-diketo-11H-indeno[1,2-c]isoquinoline)-6-propyl}methylamine]	++
Bis-1,2-{(5,6-dihydro-5,11-diketo-11H-indeno[1,2-c]isoquinoline)-6-ethylamino-ethylamino}ethane Tetra(trifluoroacetate) [Compound 14j]	++
O=C(O)C(F)(F)F.O=C(O)C(F)(F)F.O=C1c2ccccc2-c2c1c1ccc([N+](=O)[O-])cc1c(=O)n2CCNCCCNCCn1c2c(c3ccc([N+](=O)[O-])cc3c1=O)C(=O)c1ccccc1-2 [Compound 14m, Bis-1,3-{(5,6-dihydro-5,11-diketo-3-nitro-11H-indeno[1,2-c]isoquinoline)-6-ethylamino}propane Bis{trifluoroacetate)]	++
O=C1c2ccccc2-c2c1c1ccccc1c(=O)n2CCCNCCCn1c2c(c3ccccc3c1=O)C(=O)c1ccccc1-2 [Compound 12c, Bis{(5,6-dihydro-5,11-diketo-11H-indeno[1,2-c]isoquinoline)-6-propyl}amine]	+
O=C(O)C(F)(F)F.O=C(O)C(F)(F)F.O=C1c2ccccc2-c2c1c1ccccc1c(=O)n2CCCN1CCN(CCCn2c3c(c4ccccc4c2=O)C(=O)c2ccccc2-3)CC1 [Compound 14f, Bis-1,4-{(5,6-dihydro-5,11-diketo-11H-indeno[1,2-c]isoquinoline)-6-propyl}piperazine Bis(trifluoroacetate)]	0
O=C(O)C(F)(F)F.O=C(O)C(F)(F)F.O=C1c2ccccc2-c2c1c1ccc([N+](=O)[O-])cc1c(=O)n2CCCNCCCNCCCn1c2c(c3ccc([N+](=O)[O-])cc3c1=O)C(=O)c1ccccc1-2 [Compound 14n, Bis-1,3-{(5,6-dihydro-5,1-diketo-3-nitro-11H-indeno[1,2-c]isoquinoline)-6-propylamino}propane Bis{trifluoroacetate)]	0
Cl.O=C1c2ccccc2-c2c1c1ccccc1c(=O)n2CCCCNCCCn1c2c(c3ccccc3c1=O)C(=O)c1ccccc1-2 [Compound 14b, Bis{(5,6-dihydro-5,11-diketo-11H-indeno[1,2-c]isoquinoline)}-(6-propyl,6′-butyl)amine Hydrochloride]	+
COc1cc2c3c(n(CCCNCCCNCCCn4c5c(c6cc(OC)c(OC)cc6c4=O)C(=O)c4ccccc4-5)c(=O)c2cc1OC)-c1ccccc1C3=O.O=C(O)C(F)(F)F.O=C(O)C(F)(F)F [Compound 14l, Bis-1,3-{(5,6-dihydro-5,11-diketo-2,3-dimethoxy-11H-indeno[1,2-c]isoquinoline)-6-propylamino}propane Bis{trifluoroacetate)]	++
COc1cc2c3c(n(CCCNCCCNCCCn4c5c(c6ccccc6c4=O)C(=O)c4ccccc4-5)c(=O)c2cc1OC)-c1cc2c(cc1C3=O)OCO2.O=C(O)C(F)(F)F.O=C(O)C(F)(F)F [Compound 17a, 1,3-{6-(3-Amino-1-propyl)-5,6-dihydro-2,3-dimethoxy-8,9-methylenedioxy-5,1-dioxo-11H-indeno[1,2-c]isoquinoline}-{5′,6′-Dihydro-6′-(3′-amino-1′-propyl)-5′,11′-dioxo-11′H-indeno[1,2-c]isoquinoline}propane Bis(trifluoroacetate)]	+
NCCCn1c2c(c3ccccc3c1=O)C(=O)c1ccccc1-2 [Compound S-3, 5,6-dihyro-6-(3-amino-1-propyl)-5,11-dioxo-11H-indeno[1,2,c]isoquinoline, reference compound]	+++
O=C(O)C(F)(F)F.O=C(O)C(F)(F)F.O=C(O)C(F)(F)F.O=C1c2ccccc2-c2c1c1ccccc1c(=O)n2CCNCCNCCNCCn1c2c(c3ccccc3c1=O)C(=O)c1ccccc1-2 [Compound 14i, Bis{(5,6-dihydro-5,11-diketo-11H-indeno[1,2-c]isoquinoline)-6-ethylamino-ethyl}amine Tris(trifluoroacetate)]	+++
COc1cc2c3c(n(CCCN(CCCN(CCCn4c5c(c6ccccc6c4=O)C(=O)c4ccccc4-5)C(=O)OC(C)(C)C)C(=O)OC(C)(C)C)c(=O)c2cc1OC)-c1cc2c(cc1C3=O)OCO2 [Compound 16a, 1,3-{6-(3-tert-Butyloxycarbonylamino-1-propyl)-5,6-dihydro-2,3-dimethoxy-8,9-methylenedioxy-5,11-dioxo-11H-indeno[1,2-c]isoquinoline}-{5′,6′-dihydro-6′-[(3′-tert-butyloxycarbonylamino)-1′-propyl]-5′,11′-dioxo-11′H-indeno[1,2-c]isoquinoline}propane]	0
COc1cc2c3c(n(CCNCCCNCCn4c5c(c6cc(OC)c(OC)cc6c4=O)C(=O)c4ccccc4-5)c(=O)c2cc1OC)-c1ccccc1C3=O.O=C(O)C(F)(F)F.O=C(O)C(F)(F)F [Compound 14k, Bis-1,3-{(5,6-dihydro-5,11-diketo-2,3-dimethoxy-11H-indeno[1,2-c]isoquinoline)-6-ethylamino}propane Bis{trifluoroacetate)]	++
O=C1c2ccccc2-c2c1c1ccccc1c(=O)n2CCNCCn1c2c(c3ccccc3c1=O)C(=O)c1ccccc1-2 [Compound 12a, Bis{(5,6-dihydro-5,11-diketo-11H-indeno[1,2-c]isoquinoline)-6-ethyl}amine]	+
O=C(O)C(F)(F)F.O=C1c2ccccc2-c2c1c1ccccc1c(=O)n2CCCNCCn1c2c(c3ccccc3c1=O)C(=O)c1ccccc1-2 [Compound 14a, Bis{(5,6-dihydro-5,11-diketo-11H-indeno[1,2-c]isoquinoline)}-(6-ethyl,6′-propyl)ammonium Trifluoroacetate]	+
O=C(O)C(F)(F)F.O=C(O)C(F)(F)F.O=C1c2ccccc2-c2c1c1ccccc1c(=O)n2CCCNCCCCNCCCn1c2c(c3ccccc3c1=O)C(=O)c1ccccc1-2 [Compound 14h, Bis-1,4-{(5,6-dihydro-5,11-diketo-11H-indeno[1,2-c]isoquinoline)-6-propylamino}butane Bis(trifluoroacetate)]	+++
CC(C)(C)OC(=O)N(CCCn1c2c(c3ccccc3c1=O)C(=O)c1ccccc1-2)CCN(CCCn1c2c(c3ccccc3c1=O)C(=O)c1ccccc1-2)C(=O)OC(C)(C)C [Compound 13b, Bis-1,2-{(5,6-dihydro-5,11-diketo-11H-indeno[1,2-c]isoquinoline)-(6-propyl-tert-BOCamino)}ethane]	0

target: T2, Human recombinant Top1 (Homo sapiens, UniProt P11387); assay: Topoisomerase 1-mediated DNA cleavage reactions (B), 117-bp DNA oligonucleotide; type: biochemical; conditions: Table 7; rubric based on the activity of camptothecin (FIG. 6)
T2 construct: made in house
T2 sequence (P11387 1-765): T1 sequence (P11387 1-765)

Compound	Top 1 Cleavage
O=C1c2cc3c(cc2-c2c1c1ccc(F)cc1c(=O)n2CCCn1ccnc1)OCO3 [Compound 36]	+++ (+++, 75-95% activity)
O=C1c2cc3c(cc2-c2c1c1cc(F)c(F)cc1c(=O)n2CCCn1ccnc1)OCO3 [Compound 42]	+ (+, 20-50% activity)
O=C1c2cc3c(cc2-c2c1c1ccc(Cl)cc1c(=O)n2CCCn1ccnc1)OCO3 [Compound 39]	++ (++, 50-75% activity)
O=C1c2cc3c(cc2-c2c1c1ccc(F)cc1c(=O)n2CCCN1CCOCC1)OCO3 [Compound 37]	+ (+, 20-50% activity)
O=C1c2cc3c(cc2-c2c1c1ccc(Cl)cc1c(=O)n2CCCNCCO)OCO3 [Compound 41]	+++ (+++, 75-95% activity)
Cl.NCCCn1c2c(c3ccc([N+](=O)[O-])cc3c1=O)C(=O)c1cc3c(cc1-2)OCO3 [Compound 35]	++++
O=C1c2cc3c(cc2-c2c1c1ccc(F)cc1c(=O)n2CCCNCCO)OCO3 [Compound 38]	++ (++, 50-75% activity)
O=C1c2cc3c(cc2-c2c1c1ccc(Cl)cc1c(=O)n2CCCN1CCOCC1)OCO3 [Compound 40]	+ (+, 20-50% activity)
O=C1c2cc3c(cc2-c2c1c1cc(Cl)c(Cl)cc1c(=O)n2CCCn1ccnc1)OCO3 [Compound 44]	+ (+, 20-50% activity)
